Reference: patent US5925769A, “Acetylenic 1,5-diarylpyrazoles as antiinflammatory agents” (Ortho Pharmaceutical, Corp., priority 1998, dated 1999)

Molecular target: T1, CO (Rattus norvegicus, UniProt Q63921)
T1 construct: the supernatant was saved as the source of enzymes; endogenous in cells; host or cells: RBL-1 (rat basophilic leukemia) cells
T1 sequence (Q63921 27-602): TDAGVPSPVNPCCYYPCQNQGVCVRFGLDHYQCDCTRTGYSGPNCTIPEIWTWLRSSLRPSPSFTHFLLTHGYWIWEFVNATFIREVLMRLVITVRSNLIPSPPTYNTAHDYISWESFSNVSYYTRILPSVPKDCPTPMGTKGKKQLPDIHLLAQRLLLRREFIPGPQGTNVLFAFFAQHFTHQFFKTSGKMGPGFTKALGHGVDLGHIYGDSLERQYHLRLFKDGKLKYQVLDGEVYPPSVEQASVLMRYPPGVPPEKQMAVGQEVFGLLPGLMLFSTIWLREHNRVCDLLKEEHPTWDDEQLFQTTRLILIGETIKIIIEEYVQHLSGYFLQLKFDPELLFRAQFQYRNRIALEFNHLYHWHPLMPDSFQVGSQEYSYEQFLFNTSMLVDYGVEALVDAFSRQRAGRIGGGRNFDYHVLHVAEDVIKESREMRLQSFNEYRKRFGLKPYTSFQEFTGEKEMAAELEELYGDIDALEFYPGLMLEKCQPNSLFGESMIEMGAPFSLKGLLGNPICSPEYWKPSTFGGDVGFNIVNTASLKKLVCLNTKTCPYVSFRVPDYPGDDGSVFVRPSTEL
Assay: Procedure III: CO (PgD2) in intact RBL-1 cells
Type: cell-based
Experimental: The IC50 was determined using a curve fit in Cricket Graph (Computer Associated), which provided the equation of the regressed line used in the calculation.
In Procedure III, the ability to inhibit 5-LO and CO in intact RBL-1 cells was also evaluated. […] Cells were collected by centrifugation, washed once in HBSS, and resuspended at a concentration of 1×10^5 cells/mL. Cells were incubated in the presence of vehicle or drug then centrifuged at 800×g for 10 minutes at 4° C. The supernatant was removed by aspiration and the cells were resuspended in 0.5 mL of HBSS. […] The conversion of AA to 5-LO products was initiated by the addition of 10 μL (50 μCi) of 1-^14 C-AA. Products were isolated by acidification and extraction, followed by thin layer chromatography analysis as described above. Radioactive areas corresponding to authentic 5-LO (5-HETE) and CO (PgD2) products were quantitated by the Bioscan 2000 Imaging System and the IC50 was calculated as above.

Row | Compound | IC50 [nM]
1 | COc1ccc(-n2nc(C#CCN(O)C(=O)c3ccccc3)cc2-c2ccc(C)cc2)cc1 [Cpd 15] | 930
2 | COc1ccc(-n2nc(C#CC(C)N(O)C(=O)N3CCCCC3)cc2-c2ccc(Cl)cc2)cc1 (centres unmarked) [Cpd 9] | 690
